# In IntAct's records for PubMed 22354040:
# B1: Replication factor A protein 1 (Saccharomyces cerevisiae), P22336 (parent)
# chain: MSSVQLSRGDFHSIFTNKQRYDNPTGGVYQVYNTRKSDGANSNRKNLIMISDGIYHMKALLRNQAASKFQSMELQRGDIIRVIIAEPAIVRERKKYVLLVDDFELVQSRADMVNQTSTFLDNYFSEHPNETLKDEDITDSGNVANQTNASNAGVPDMLHSNSNLNANERKFANENPNSQKTRPIFAIEQLSPYQNVWTIKARVSYKGEIKTWHNQRGDGKLFNVNFLDTSGEIRATAFNDFATKFNEILQEGKVYYVSKAKLQPAKPQFTNLTHPYELNLDRDTVIEECFDESNVPKTHFNFIKLDAIQNQEVNSNVDVLGIIQTINPHFELTSRAGKKFDRRDITIVDDSGFSISVGLWNQQALDFNLPEGSVAAIKGVRVTDFGGKSLSMGFSSTLIPNPEIPEAYALKGWYDSKGRNANFITLKQEPGMGGQSAASLTKFIAQRITIARAQAENLGRSEKGDFFSVKAAISFLKVDNFAYPACSNENCNKKVLEQPDGTWRCEKCDTNNARPNWRYILTISIIDETNQLWLTLFDDQAKQLLGVDANTLMSLKEEDPNEFTKITQSIQMNEYDFRIRAREDTYNDQSRIRYTVANLHSLNYRAEADYLADELSKALLA
# partner: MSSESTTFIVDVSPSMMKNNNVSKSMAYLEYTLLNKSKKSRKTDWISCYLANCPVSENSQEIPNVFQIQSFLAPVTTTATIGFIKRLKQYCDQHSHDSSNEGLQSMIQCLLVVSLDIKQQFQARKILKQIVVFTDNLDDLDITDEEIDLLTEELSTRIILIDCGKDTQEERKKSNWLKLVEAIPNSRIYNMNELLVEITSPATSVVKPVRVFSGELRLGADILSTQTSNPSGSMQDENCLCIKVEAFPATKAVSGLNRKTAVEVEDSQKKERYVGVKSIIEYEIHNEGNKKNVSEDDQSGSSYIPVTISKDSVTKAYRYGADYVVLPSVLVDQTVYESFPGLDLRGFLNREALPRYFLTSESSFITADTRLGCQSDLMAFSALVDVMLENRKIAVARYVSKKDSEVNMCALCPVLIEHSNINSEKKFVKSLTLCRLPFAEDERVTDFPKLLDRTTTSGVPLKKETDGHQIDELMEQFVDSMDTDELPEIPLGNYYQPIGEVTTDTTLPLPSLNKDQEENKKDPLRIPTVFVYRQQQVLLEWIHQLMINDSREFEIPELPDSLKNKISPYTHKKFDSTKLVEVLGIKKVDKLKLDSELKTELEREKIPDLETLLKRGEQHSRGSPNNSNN
# Variants of: B1
# Settings: with ku80_yeast YKU80, Q04437
row,effect of a mutation on the interaction,Variant
1,decreasing interaction,D228Y
